Experimental findings from publication PMC4503722, “Novel Phenotypic Outcomes Identified for a Public Collection of Approved Drugs from a Publicly Accessible Panel of Assays” (PLoS ONE, 2015) are described below.

The chains behind the UniProt entries cited, without tags or fusion partners. Where a name states a change or a piece, a line headed by the entry shows the natural chain unless it says otherwise. Residues count along the entry.
UniProt P36888, 27-993: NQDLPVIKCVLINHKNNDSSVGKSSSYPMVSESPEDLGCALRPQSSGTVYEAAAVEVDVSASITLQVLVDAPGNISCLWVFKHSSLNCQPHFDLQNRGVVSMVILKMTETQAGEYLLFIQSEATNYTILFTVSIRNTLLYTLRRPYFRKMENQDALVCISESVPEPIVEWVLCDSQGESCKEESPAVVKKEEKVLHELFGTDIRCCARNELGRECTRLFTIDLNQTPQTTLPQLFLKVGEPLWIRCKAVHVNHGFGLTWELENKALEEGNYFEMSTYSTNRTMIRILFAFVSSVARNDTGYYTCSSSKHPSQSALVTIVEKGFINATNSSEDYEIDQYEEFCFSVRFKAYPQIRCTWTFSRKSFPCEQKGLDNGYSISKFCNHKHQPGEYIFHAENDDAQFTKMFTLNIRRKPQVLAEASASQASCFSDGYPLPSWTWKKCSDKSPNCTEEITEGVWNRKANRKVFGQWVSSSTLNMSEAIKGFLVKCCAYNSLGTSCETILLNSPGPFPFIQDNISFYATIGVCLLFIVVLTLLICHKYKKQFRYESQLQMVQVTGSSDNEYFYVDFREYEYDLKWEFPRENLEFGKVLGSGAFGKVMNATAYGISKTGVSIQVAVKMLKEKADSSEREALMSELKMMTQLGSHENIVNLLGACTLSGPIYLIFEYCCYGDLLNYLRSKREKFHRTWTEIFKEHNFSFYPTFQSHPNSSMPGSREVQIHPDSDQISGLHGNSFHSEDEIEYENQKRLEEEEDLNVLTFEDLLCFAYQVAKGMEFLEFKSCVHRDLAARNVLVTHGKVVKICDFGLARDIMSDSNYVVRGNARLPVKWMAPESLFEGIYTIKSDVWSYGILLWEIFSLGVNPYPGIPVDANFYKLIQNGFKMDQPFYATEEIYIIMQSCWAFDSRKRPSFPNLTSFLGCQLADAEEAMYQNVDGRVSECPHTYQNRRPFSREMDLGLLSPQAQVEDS
UniProt O60674: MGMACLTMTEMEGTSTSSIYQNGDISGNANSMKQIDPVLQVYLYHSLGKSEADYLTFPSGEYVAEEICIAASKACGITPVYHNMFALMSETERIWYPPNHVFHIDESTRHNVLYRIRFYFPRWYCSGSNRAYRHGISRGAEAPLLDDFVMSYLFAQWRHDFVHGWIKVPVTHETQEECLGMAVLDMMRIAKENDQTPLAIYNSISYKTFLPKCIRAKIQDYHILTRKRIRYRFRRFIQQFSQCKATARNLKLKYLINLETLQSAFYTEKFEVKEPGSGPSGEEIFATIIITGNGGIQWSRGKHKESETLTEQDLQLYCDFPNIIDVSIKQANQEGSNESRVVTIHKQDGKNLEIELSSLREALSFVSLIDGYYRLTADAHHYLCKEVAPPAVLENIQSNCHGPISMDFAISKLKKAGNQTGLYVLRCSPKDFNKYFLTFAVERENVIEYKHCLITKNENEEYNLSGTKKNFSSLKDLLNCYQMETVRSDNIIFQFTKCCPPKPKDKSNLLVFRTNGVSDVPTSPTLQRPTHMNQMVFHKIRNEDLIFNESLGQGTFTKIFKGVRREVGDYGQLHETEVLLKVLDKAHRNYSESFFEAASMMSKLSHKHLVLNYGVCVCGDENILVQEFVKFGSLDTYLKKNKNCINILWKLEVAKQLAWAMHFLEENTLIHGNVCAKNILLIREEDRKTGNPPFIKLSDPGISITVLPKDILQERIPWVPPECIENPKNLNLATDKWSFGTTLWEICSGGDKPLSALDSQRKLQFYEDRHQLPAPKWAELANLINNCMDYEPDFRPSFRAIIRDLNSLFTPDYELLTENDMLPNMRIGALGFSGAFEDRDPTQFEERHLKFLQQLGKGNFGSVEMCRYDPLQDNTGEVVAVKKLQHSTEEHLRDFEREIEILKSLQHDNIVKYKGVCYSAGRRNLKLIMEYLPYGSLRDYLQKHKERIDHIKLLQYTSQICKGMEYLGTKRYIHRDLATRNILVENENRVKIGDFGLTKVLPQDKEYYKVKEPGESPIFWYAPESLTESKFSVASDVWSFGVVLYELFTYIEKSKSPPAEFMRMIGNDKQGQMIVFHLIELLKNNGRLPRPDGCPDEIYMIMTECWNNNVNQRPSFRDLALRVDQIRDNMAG
UniProt P49841: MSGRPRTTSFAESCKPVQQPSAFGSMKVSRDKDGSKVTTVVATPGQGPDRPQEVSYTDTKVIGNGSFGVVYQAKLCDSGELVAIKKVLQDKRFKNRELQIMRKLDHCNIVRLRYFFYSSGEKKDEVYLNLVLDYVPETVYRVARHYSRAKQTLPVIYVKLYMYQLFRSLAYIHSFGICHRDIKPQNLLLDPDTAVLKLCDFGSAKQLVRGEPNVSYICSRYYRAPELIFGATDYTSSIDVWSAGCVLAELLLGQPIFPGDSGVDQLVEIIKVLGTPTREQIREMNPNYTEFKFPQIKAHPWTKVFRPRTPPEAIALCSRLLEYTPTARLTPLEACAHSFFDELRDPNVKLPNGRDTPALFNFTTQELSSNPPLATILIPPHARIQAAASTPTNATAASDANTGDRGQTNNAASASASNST
UniProt P23443: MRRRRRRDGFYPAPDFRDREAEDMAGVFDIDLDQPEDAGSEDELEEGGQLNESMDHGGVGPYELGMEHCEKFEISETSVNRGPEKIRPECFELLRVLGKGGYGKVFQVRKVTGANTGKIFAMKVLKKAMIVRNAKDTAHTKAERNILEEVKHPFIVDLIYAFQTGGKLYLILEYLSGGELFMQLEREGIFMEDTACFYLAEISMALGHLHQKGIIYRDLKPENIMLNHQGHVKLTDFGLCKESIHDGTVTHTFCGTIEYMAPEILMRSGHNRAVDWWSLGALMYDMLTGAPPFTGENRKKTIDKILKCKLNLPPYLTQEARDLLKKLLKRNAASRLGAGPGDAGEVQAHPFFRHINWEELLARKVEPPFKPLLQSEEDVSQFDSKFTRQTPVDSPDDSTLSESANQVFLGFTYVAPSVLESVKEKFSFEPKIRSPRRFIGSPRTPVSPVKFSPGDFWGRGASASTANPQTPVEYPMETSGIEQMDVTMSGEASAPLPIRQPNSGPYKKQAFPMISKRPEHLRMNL

One data set concerns the target T1, hFLT3 (Homo sapiens, UniProt P36888).
T1 construct: purchased Cerep (LANCE kinase assay platform, contract assay)
As to the kind of experiment: Cerep LANCE kinase assay hFLT3 (S1 assay 35). Format: biochemical.

A further data set concerns the target T2, hJAK2 (Homo sapiens, UniProt O60674).
T2 construct: purchased Cerep (LANCE kinase assay platform, contract assay)
Briefly: Cerep LANCE kinase assay hJAK2 (S1 assay 33). Format: biochemical.

For a further data set, the target named is T3, hGSK3b (Homo sapiens, UniProt P49841).
T3 construct: purchased Cerep (LANCE kinase assay platform, contract assay)
As to the kind of experiment: Cerep LANCE kinase assay hGSK3b (S1 assay 34). Format: biochemical.

The target in another data set is T4, hp70S6K1 (RPS6KB1) (Homo sapiens, UniProt P23443).
T4 construct: purchased Cerep (LANCE kinase assay platform, contract assay)
As to the kind of experiment: Cerep LANCE kinase assay hp70S6K1 (S1 assay 31). Format: biochemical.

Data set [1] concerns ECFC/ADSC co-culture cell nuclei number. Particulars: human.

Consider `CCN(CC)CCOc1ccc(C(=C(Cl)c2ccccc2)c2ccccc2)cc1` [Clomiphene], for which the IC50 on hFLT3, against hJAK2, against hGSK3b and against hp70S6K1 (RPS6KB1) was more than 20 µM in each case.
Regarding `CCN(CC)CCOc1ccc(/C(=C(\Cl)c2ccccc2)c2ccccc2)cc1` [NCGC00164385-05], the “IC50/EC50, hFLT3 LANCE (assay number 35)” value on hFLT3 is recorded as more than 20 µM. The “IC50/EC50, hJAK2 LANCE (assay number 33)” value on hJAK2 is more than 20 µM. On hGSK3b, the “IC50/EC50, hGSK3b LANCE (assay number 34)” value was more than 20 µM. For the same compound, at hp70S6K1 (RPS6KB1), the “IC50/EC50, hp70S6K1 LANCE (assay number 31)” value was more than 20 µM.
In the case of `CC[C@H](C)C(=O)O[C@H]1C[C@@H](C)C=C2C=C[C@H](C)[C@H](CC[C@@H]3C[C@@H](O)CC(=O)O3)[C@H]21` [lovastatin, reference compound], in data set [1], the “cytotoxicity IC50 relative to IC50 for inhibition of endothelial cord formation” value is recorded as 2–3 fold.
